Measured values published in patent US20150258059A1, “ANTIMICROBIAL AND RADIOPROTECTIVE COMPOUNDS” (BioDiem, Ltd, priority 2001, published 2015).

Experiments:
Assay type in all cases: cell-based
[1] = test system: E. faecalis-clinical isolate 2; assay: microbe, parasite or virus in culture
Streptococcus pyogenes = assay: Agar diffusion bioassay (well and disk); conditions: any concentration from 1 to 512 μg/mL; bound to agar
Excerpt: (§1) Both well diffusion and disk diffusion assays were attempted.

[2] = test system: susceptible strains of S. aureus; assay: Agar diffusion bioassay (well and disk); conditions: any concentration from 1 to 512 μg/mL; bound to agar
Excerpt: as §1

**Q.** What does the source list for `C/C(=C\c1ccc2c(c1)OCO2)[N+](=O)[O-]` [Compound (1)]?
**A.** MMC [1]: 32 µg/mL; MMC ([1]; 35° C., 24 hours): 32 µg/mL; MIC ([1]; Enterococcus faecalis, 35° C., 24 hours): 32 µg/mL (≈ 154 µM); zones of inhibition (Streptococcus pyogenes): no zones of inhibition were produced; zones of inhibition [2]: no zones of inhibition were produced

≈ marks a conversion by molar mass, not a printed value. Like-named read-outs stand apart in the source and are kept apart here.
